Measurements reported in patent US20210259973A1.

Protein sequences, listed by entry. Tags and fused reporters are not part of them. Chains listed by the source or under a name are the forms on record and can include a tag or linker.
UniProt P01854, other isoform, or with tags, fused parts or gaps: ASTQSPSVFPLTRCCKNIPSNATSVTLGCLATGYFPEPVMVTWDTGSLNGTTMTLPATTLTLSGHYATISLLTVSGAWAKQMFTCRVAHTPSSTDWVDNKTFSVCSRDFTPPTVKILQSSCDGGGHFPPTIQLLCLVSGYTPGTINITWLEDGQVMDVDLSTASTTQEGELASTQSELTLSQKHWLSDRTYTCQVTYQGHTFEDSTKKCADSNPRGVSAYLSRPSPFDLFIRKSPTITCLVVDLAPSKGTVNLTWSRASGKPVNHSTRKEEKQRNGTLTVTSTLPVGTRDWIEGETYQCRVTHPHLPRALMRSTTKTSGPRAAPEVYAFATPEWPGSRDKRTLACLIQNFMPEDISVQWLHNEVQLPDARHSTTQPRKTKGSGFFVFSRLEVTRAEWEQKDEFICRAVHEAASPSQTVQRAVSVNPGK

Legend:
[1] = biological target: human IgE (immobilized on the SPR chip) (human) (UniProt P01854); assay: SPR, IgG injected over amine-coupled IgE (t=0)
[2] = biological target: human IgE (immobilized on the SPR chip) (human) (UniProt P01854); assay: SPR, IgG injected over amine-coupled IgE (t=6 months)
[3] = biological target: human IgE (immobilized on the SPR chip) (human) (UniProt P01854); assay: SPR, Biacore T200, single-cycle kinetic titration, IgE immobilized (390 RU), 1:1 model

## Omalizumab drug substance, Sample 1 of Example 2 (untreated) (antibody)
[1]
  pKd: 9.69
  koff: 0.000159 s⁻¹
  kon: 790000 M⁻¹ s⁻¹

## Omalizumab released in PBS from chitosan particles, Sample 2 of Example 2 (antibody)
[2]
  pKd: 9.72
  koff: 0.000192 s⁻¹
  kon: 1.02e+06 M⁻¹ s⁻¹

## Omalizumab freeze-dried drug product (Halix batch B3010640), Sample 1 of Example 3 (untreated) (antibody)
[3]
  pKd: 8.72
  koff: 0.00154 s⁻¹
  kon: 800000 M⁻¹ s⁻¹

## XOLAIR (originator omalizumab), reference sample (antibody)
[2]
  pKd: 9.82
  koff: 0.000117 s⁻¹
  kon: 1.12e+06 M⁻¹ s⁻¹
[1]
  pKd: 9.74
  koff: 0.000149 s⁻¹
  kon: 810000 M⁻¹ s⁻¹

## Omalizumab released in PBS from chitosan particles, Sample 2 of Example 3 (antibody)
[3]
  pKd: 8.72
  koff: 0.00134 s⁻¹
  kon: 710000 M⁻¹ s⁻¹

pKd: −log10 of the molar value.
